According to US8740762B2, “Specific inhibition of cPLA2 enhances the efficacy of radiotherapy” (Vanderbilt University, priority 2007, dated 2014):

Legend:
HUVEC [1] = test: Endothelial cell migration through the filter; details: 24 hours
Protocol: FIG. 8A is a bar graph showing the results of endothelial cell migration assays. Fresh complete HUVEC media was added to the bottom chamber of 6 well plates with 8.0 micron inserts, while HUVEC suspension was added to the top chamber. Both chambers were treated with EtOH or cPLA2 inhibitors (1 μM AACOCF3 and 1 μM MAFP) for 30 minutes and irradiated with 3 Gy. 24 hours later, cells in the insert chambers were stained with DAPI and counted (5 HPF per sample).
(§1) The role of cPLA2 in HUVEC migration was investigating using two approaches: endothelial cell migration through the filter and endothelial cell gash closure (see FIGS. 8A-8C). […] However, inhibition of cPLA2 with either AACOCF3 or MAFP followed by irradiation maximally abolished HUVEC migration in both assays leaving only 40% of cells capable of migration (see FIGS. 8A-8C).

HUVEC [2] = test: Endothelial cell gash closure assay; details: 24 hours
Protocol: FIGS. 8B and 8C depict the results of endothelial cell gash closure assays. HUVEC were grown to 70-80% confluency. Four parallel wounds were created on each plate using a 200 ml pipette tip, and cells were treated with EtOH or cPLA2 inhibitors (1 μM AACOCF3 and 1 μM MAFP) for 30 minutes and irradiated with 3 Gy. 24 hours later, cells were stained with 1% methylene blue and counted. Shown are micrographs of stained cells (FIG. 8B) and a bar graph of the corresponding average percentage of migrated cells with SEM from six experiments (FIG. 8C). *: P<0.05.
as §1

PLA2 = PLA2 enzymatic activity in irradiated HUVEC pretreated with PLA2 inhibitors; type: cell-based, human; details: 1 μM inhibitor 30 minutes prior to 3 Gy, harvested 3 minutes after beginning of irradiation
LLC tumors = test: Tumor size by Power Doppler sonography; details: for fold-change in tumor size comparing first and last measurements: day 6 vs day 17, control 8.5-fold, 3 Gy 10-fold
Protocol: FIGS. 9E and 9F are bar graphs showing fold change in tumor size in mice with LLC tumors and treated intraperitoneally (IP) with 70% EtOH or cPLA2 inhibitors (FIG. 9E, 10 mg/kg AACOCF3 or FIG. 9F, 2.0 mg/kg MAFP). Tumors were irradiated with 3 Gy 30 minutes after IP administration. Treatment was repeated daily for 5 consecutive days. Sizes of the tumors were measured using Power Doppler sonography on day 6 after tumor inoculation (first day of treatment) and on day 14 (FIG. 9E) or 17 (FIG. 9F). Shown are bar graphs of average fold-change in tumor size. All graphs are with SEM from at least three animals per group. *: P<0.05.
Power Doppler sonography was also used to estimate effects of cPLA2 inhibition on tumor size. The same mouse tumor model and irradiation with the addition of a second cPLA2 inhibitor, MAFP, was studied. Tumor size was measured over the course of the experiment. Treatment with radiation alone or inhibitors alone (10 mg/kg AACOCF3 or 2 mg/kg for MAFP) led to a persistent decrease in the average tumor size which was not statistically significant. […] This difference was especially pronounced when fold-changes in tumor size comparing first and last measurements were calculated (see FIG. 9E: 2-fold for AACOCF3+3 Gy vs. 10-fold for control and 10-fold for 3 Gy; FIG. 9F: 4-fold for MAFP+3 Gy vs. 8.5-fold for control and 10-fold for 3 Gy).

[3] = 1 μM inhibitor followed by 3 Gy irradiation

CCCCC/C=C\C/C=C\C/C=C\C/C=C\CCCCOP(=O)(F)OC (centres unmarked)
decrease in HUVEC migration through the filter (HUVEC [1]; 1 μM inhibitor alone): 20%
cells capable of migration (through the filter) (HUVEC [1]; [3]): 40%
decrease in gash closure (HUVEC migration) (HUVEC [2]; 1 μM inhibitor alone): 50%
cells capable of migration (gash closure) (HUVEC [2]; [3]): 40%
radiation-induced activation of PLA2 (PLA2): completely abrogated
fold-change in tumor size comparing first and last measurements (LLC tumors; 2 mg/kg IP + 3 Gy daily for 5 days): 4 fold
fold-change in tumor size comparing first and last measurements (LLC tumors; 2 mg/kg IP alone daily for 5 days): 7 fold
decrease in the average tumor size (LLC tumors; inhibitors alone, 10 mg/kg AACOCF3 or 2 mg/kg for MAFP, IP daily for 5 days): not statistically significant
